Among the data in patent EP1160247A1, “6,5-Fused aromatic ring systems having enhanced phosphodiesterae IV inhibitory activity” (Euro-Celtique S.A., priority 2000, dated 2001) are IC50 values, retold here.

Sequences of proteins named here, by UniProt entry; tags and fusion partners are left off. A change or cut given only in a name is not applied to a line headed by its entry.
UniProt Q14432: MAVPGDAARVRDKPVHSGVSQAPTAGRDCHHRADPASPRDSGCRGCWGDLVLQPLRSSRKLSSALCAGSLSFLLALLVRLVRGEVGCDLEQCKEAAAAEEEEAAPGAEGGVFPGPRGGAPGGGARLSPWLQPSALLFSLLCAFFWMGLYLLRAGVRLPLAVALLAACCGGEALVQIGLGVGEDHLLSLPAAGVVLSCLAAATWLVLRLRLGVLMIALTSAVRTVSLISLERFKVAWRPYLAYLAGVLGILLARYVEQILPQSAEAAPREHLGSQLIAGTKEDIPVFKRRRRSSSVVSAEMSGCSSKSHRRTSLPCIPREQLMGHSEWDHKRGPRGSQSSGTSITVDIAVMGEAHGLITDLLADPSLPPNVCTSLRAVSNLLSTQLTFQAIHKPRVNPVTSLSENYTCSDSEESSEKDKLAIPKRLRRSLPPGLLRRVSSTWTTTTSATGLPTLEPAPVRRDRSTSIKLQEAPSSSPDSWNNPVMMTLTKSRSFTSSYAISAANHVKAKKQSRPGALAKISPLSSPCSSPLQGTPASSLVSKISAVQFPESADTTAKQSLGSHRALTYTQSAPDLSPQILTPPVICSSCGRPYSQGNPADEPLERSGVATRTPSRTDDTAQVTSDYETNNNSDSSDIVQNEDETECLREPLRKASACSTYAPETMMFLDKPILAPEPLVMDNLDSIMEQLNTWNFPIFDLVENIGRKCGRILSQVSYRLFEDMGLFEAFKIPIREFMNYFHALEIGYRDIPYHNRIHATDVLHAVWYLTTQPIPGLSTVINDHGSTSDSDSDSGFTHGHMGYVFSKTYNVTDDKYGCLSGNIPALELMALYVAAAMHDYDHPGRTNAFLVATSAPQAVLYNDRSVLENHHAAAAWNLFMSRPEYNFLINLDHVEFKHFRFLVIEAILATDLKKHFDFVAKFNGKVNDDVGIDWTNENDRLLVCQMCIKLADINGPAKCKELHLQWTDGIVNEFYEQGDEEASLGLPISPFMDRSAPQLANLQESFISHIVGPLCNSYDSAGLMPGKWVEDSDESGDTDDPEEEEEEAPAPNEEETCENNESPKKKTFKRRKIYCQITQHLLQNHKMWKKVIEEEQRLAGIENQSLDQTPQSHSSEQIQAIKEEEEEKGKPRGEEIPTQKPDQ

Each structure is given as a SMILES string.

The experiment deals with T1, PDE III (Homo sapiens, UniProt Q14432).
T1 construct: Fractions containing PDE III activity are pooled and dialyzed; from tissue; host or cells: human platelets (100,000 x g supernatant, DEAE-Trisacryl M fraction)
The experiment can be described thus: Type III PDE activity, hydrolysis of [3H]-cyclic AMP. Format: biochemical. The method, then: The Type III PDE is isolated from human platelets using a procedure similar to that previously described by Weishaar, R.E.; Burrows, S.D.; Kobylarg, D.C., Quade, N.M.; Evans, D.B., Biochem. Pharmacol., 35:787, 1986. Briefly, 1-2 units of platelets are suspended in an equal volume of buffer (20 mM Tris-HCl, pH 7.5, containing 2 mM magnesium acetate, 1 mM dithiothreitol, and 5 mM Na2 EDTA). The protease inhibitor phenyl methyl-sulfonyl fluoride (PMSF) is also included in this buffer at a final concentration of 200 µM. The suspension is homogenized using a polytron and the homogenate centrifuged at 100,000 x g for 60 minutes. This and all subsequent procedures are performed at 0-4°C. The supernatant is then filtered through four layers of gauze and applied to a DEAE-Trisacryl M column, previously equilibrated with buffer B (20 mM Tris-HCl, pH 7.5, containing 1 mM magnesium acetate, 1 mM dithiothreitol and 200 µM PMSF). After application of the sample, the column is washed with several bed volumes of buffer B, after which the different forms of PDE are eluted from the column using two successive linear NaCl gradients (0.05-0.15 M, 300 ml total; 0.15-0.40 M, 200 ml total). […]
Enzyme activity is assessed by measuring the hydrolysis of [^3H]-cyclic AMP, as described by Thompson, W.J., Teraski, W.L., Epstein, P.N., Strada, S.J.: Adv. […]

What is called IC50 is the concentration that gives 50% inhibition. Low values mean inhibition by little substance, high ones a need for much substance. For the compound `Cn1c(=O)c2[nH]cnc2n(C)c1=O` [Theophylline, reference compound], the IC50 turned out to be 380 µM.
